## AlphaSeq binding of Ab-95 light chain variants to a spike HR2 peptide

Reference: Engelhart et al. 2022, doi:10.1038/s41597-022-01779-4. File: FLAb, binding data.

Antigen: PDVDLGDISGINAS, a 14-residue peptide of the SARS-CoV-2 spike HR2 region.

Parent: Ab-95, a human scFv built as VH, a (GGGGS)3 linker, VL. Only the CDRs of the light chain vary.
VH: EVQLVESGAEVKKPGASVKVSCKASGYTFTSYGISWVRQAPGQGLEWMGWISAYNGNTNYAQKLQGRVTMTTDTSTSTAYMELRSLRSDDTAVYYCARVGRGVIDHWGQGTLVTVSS
VL: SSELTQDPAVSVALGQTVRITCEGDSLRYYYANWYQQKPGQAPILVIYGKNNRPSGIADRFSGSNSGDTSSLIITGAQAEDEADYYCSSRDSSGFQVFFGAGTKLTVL

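In library AAYL52, one, two or three CDR residues were substituted; doubles and triples were drawn at random. Affinity was read by AlphaSeq, a pooled yeast mating assay with surface-displayed partners. Binding brings cells together so that they mate, and sequencing counts the barcode pairs among the diploids. Each replicate has its own calibration line, from reference interactions of the BCL2 family. There are three technical replicates.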

Changes read parent residue, position, new residue, counted from the first residue of the VL shown. Numbers give log10(Kd / nM), so 0 is 1 nM and 3 is 1 µM. Smaller is tighter. Averages over replicates are reported, and they cover detected replicates only. "nd" marks a missing value. The strain was present, yet no cells mated with the target were sequenced in that replicate, which points to weak or no binding.

The variant N33K S89T R90P showed nd, nd, 3.58 (controls 1 of 9).
The variant P54M S93Q Q96V showed 5.29, nd, nd (controls 1 of 9).
The variant L27Q G49P G94K showed nd, 3.98, nd (controls 4 of 9).
The variant P54Q S88T G94S showed 3.05, 2.70, 2.32 (mean 2.69; controls 4 of 9).
The variant D25F N52V showed 2.91, 2.53, 3.00 (mean 2.82; controls 1 of 9).
The variant G24Y D91H F95P showed 4.53, 3.60, 4.61 (mean 4.25; controls 4 of 9).
The variant R28S S55Q Q96S showed 2.04, 2.16, 1.68 (mean 1.96; controls 6 of 9).
The variant R53D S55L R90I showed nd, nd, nd (controls 0 of 9).
The variant G24P S55K S88V showed 4.28, 5.30, 4.50 (mean 4.69; controls 3 of 9).
The variant Y29W S89N S92I showed nd, nd, nd (controls 1 of 9).
The variant S26A N33F F98P showed nd, 4.49, nd (controls 2 of 9).
The variant N51D P54D D91T showed nd, 4.31, nd (controls 4 of 9).
The variant G24F L27N S93K showed 4.05, 4.79, 4.16 (mean 4.34; controls 2 of 9).
The variant L27R S93R showed 3.73, 4.20, nd (mean 3.96; controls 1 of 9).
The variant Y29D N51V P54D showed nd, 4.26, nd (controls 5 of 9).
The variant E23G S88V R90V showed 2.72, 3.05, 2.40 (mean 2.72; controls 7 of 9).
The variant R28K Y30H K50H showed 1.27, 1.28, 0.77 (mean 1.11; controls 2 of 9).
The variant N52R F98G showed nd, 4.26, nd (controls 4 of 9).
The variant R90F F95H F98T showed 3.26, 2.80, 4.01 (mean 3.36; controls 1 of 9).
The variant Q96C showed 1.84, 2.20, 1.98 (mean 2.01; controls 3 of 9).
The variant R28F S92N showed 3.59, 3.14, 4.15 (mean 3.62; controls 4 of 9).
The variant E23G Y29T G49E showed 3.26, 4.06, 3.09 (mean 3.47; controls 1 of 9).
The variant K50C N51Q S92C showed nd, nd, nd (controls 2 of 9).
The variant Y31F K50R D91E showed 5.13, nd, 3.44 (mean 4.28; controls 2 of 9).
The variant N52P S88W S93V showed 3.32, nd, nd (controls 4 of 9).
The variant Y29D Y31F S93W showed 3.03, 2.45, 2.31 (mean 2.60; controls 3 of 9).
The variant R28W Y30S Q96F showed 1.93, 1.73, 1.55 (mean 1.74; controls 1 of 9).
The variant S89F F95M V97L showed nd, 4.46, nd (controls 2 of 9).
The variant P54K S93T showed 4.04, 3.39, 2.35 (mean 3.26; controls 1 of 9).
The variant D91N S92N Q96V showed nd, nd, nd (controls 4 of 9).
The variant K50N Q96S F98Q showed 3.60, 3.15, 3.73 (mean 3.49; controls 2 of 9).
The variant G49R N51T V97A showed nd, 3.81, nd (controls 3 of 9).
The variant S89C showed 2.57, 2.00, 1.40 (mean 1.99; controls 3 of 9).
The variant R28A N52F R90T showed 3.70, 3.02, nd (mean 3.36; controls 1 of 9).
The variant Y30G R53N Q96Y showed 2.39, 2.11, 1.81 (mean 2.11; controls 5 of 9).
The variant Q96A V97L F98E showed 2.45, 2.78, 2.59 (mean 2.61; controls 1 of 9).
The variant A32P R53L S93D showed 2.28, 2.87, 2.53 (mean 2.56; controls 3 of 9).
The variant E23I Y30A S89E showed 2.51, 2.45, 2.02 (mean 2.33; controls 2 of 9).

Repeated from above, the 5 best binders with a signal in all replicates:

Variant R28K Y30H K50H gave 1.27, 1.28, 0.77 (mean 1.11; controls 2 of 9).
Variant R28W Y30S Q96F gave 1.93, 1.73, 1.55 (mean 1.74; controls 1 of 9).
Variant R28S S55Q Q96S gave 2.04, 2.16, 1.68 (mean 1.96; controls 6 of 9).
Variant S89C gave 2.57, 2.00, 1.40 (mean 1.99; controls 3 of 9).
Variant Q96C gave 1.84, 2.20, 1.98 (mean 2.01; controls 3 of 9).

Parent in this assay: reference entry 2.31, copy in this library 2.25. As a blank, each scFv also met three strains without target: over library AAYL52, 28% of these pairings were detected, typically at 3.91 and seldom below 2.90. Also given: how often the same scFv was detected with the empty control strains.